What was measured:
[1] = system: Lewis rat adjuvant-induced arthritis model; test: Embodiment 1: oral Nib1 and injected methotrexate in Lewis rat adjuvant-induced arthritis model (joint score, paw volume, AUC); assay type: in vivo
[2] = system: adjuvant-induced arthritis in rats; test: Embodiment 3: oral Nib1 and methotrexate in adjuvant-induced arthritis in rats (joint score, paw volume, AUC); design: species or system Lewis rat; conditions: rat, in vivo

CN(Cc1cnc2nc(N)nc(N)c2n1)c1ccc(C(=O)N[C@@H](CCC(=O)O)C(=O)O)cc1 [MTX, Methotrexate]
paw volume AUC relative to vehicle group, as fraction ([1]; Embodiment 1, methotrexate 0.5 mg/kg intraperitoneal, Nib1 10 mg/kg oral): 0.607 | the therapeutic effects compared with vehicle group (paw volume x time AUC %) ([1]; rat, in vivo): 60.7% | effect on ΔAUC of paw volume relative to the vehicle group / synergistic effect [2]: not significant

Source: US12409179B2, “Pharmaceutical combination of pimozide and methotrexate and use thereof” (GENEROS BIOPHARMA LTD., priority 2019, dated 2025)
